Laboratory results taken from patent US9526699B2, “Biodegradable and thermosensitive poly(organophosphazene) hydrogel, preparation method thereof and use thereof” (KIST, priority 2006, dated 2016).

Test: Sol-gel phase transition of poly(organophosphazene) solutions with temperature (Brookfield rheometer)
Type: physicochemical
Settings: pH 7.4
Source text: In Table 3, the term ‘max. (maximum) gelling temp.

Substance	Max. gelling temp. [°C]
poly[(phenylalanine ethyl-ester)(ethyl-2-(O-glycyl)lactate)(aminomethoxy polyethylene glycol 550)] [Example 3]	2
poly[(isoleucine ethyl-ester)(aminomethoxy polyethylene glycol 550) phosphazene] [Example 11]	8
poly[(isoleucine ethyl-ester)(aminomethoxy polyethylene glycol 550)(glycylglycine)phosphazene] [Example 10]	6

Now from value to substance:

Max. gelling temp. [°C]	Substance
9	poly[(isoleucine ethyl-ester)(aminomethoxy polyethylene glycol 550)(glycylglycine)(glycyl glycyl polyethyleneimine)phosphazene] [Example 13]
9	poly[(isoleucine ethyl-ester)(aminomethoxy polyethylene glycol 550)(glycylglycine)phosphazene] [Example 9]
7	poly[(isoleucine ethyl-ester)(aminomethoxy polyethylene glycol 350)(glycine)phosphazene] [Example 5]
